Laboratory results as given in patent US20080119513A1, “Sulfonamide Derivative Selectively Inhibiting Mmp-13” (priority 2004, published 2008).

By UniProt entry, the sequences of proteins in these tests, tags left out. Residues count along the entry.
UniProt P08253, 110-660 limits assumed: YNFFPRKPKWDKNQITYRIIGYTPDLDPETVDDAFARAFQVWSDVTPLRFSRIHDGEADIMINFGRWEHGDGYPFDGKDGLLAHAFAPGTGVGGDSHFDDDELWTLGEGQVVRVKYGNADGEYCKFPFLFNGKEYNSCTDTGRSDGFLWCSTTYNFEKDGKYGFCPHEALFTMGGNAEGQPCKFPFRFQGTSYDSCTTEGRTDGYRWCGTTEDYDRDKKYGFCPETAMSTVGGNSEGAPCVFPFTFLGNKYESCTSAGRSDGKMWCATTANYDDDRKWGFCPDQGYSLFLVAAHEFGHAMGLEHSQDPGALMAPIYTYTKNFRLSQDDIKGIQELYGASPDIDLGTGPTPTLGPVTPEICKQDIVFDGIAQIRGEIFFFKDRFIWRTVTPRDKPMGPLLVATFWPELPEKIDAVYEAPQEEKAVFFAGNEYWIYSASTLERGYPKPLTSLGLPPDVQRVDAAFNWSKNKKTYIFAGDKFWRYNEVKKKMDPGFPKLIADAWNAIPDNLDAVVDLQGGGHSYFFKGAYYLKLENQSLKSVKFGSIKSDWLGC
UniProt P22894, 99-262 limits assumed: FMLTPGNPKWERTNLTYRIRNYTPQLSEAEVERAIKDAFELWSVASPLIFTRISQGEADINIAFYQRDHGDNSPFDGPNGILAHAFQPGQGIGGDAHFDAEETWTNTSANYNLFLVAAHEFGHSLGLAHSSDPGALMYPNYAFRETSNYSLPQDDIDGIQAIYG
UniProt P14780, 107-707 limits assumed: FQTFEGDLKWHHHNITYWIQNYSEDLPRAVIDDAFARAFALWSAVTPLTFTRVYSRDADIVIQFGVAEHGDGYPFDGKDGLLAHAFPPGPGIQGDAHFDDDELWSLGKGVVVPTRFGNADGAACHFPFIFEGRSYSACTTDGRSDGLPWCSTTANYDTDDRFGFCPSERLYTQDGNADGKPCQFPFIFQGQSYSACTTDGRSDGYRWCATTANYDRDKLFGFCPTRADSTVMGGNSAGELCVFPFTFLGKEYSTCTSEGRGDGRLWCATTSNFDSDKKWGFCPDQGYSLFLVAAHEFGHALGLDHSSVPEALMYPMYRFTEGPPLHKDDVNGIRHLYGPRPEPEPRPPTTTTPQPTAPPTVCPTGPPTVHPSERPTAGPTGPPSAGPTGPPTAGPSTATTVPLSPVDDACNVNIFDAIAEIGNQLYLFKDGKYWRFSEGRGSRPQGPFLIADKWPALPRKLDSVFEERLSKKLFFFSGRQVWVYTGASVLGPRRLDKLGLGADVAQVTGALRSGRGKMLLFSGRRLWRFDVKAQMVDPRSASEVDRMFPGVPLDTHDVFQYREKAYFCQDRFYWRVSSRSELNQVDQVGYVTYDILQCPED
UniProt P39900, 100-263 limits assumed: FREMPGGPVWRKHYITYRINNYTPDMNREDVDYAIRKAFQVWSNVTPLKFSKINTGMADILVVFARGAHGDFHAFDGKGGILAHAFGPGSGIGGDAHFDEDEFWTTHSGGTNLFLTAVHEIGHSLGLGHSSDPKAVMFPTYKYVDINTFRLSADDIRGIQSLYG

Key:
MMP-13 = MMP-13 (Homo sapiens, UniProt P45452); assay: Assay for inhibitory activities on MMPs (fluorogenic peptide substrate), MMP-13; conditions: read-out: MMP inhibitory activity IC50 MMP-13
MMP-2 = MMP-2 (Homo sapiens, UniProt P08253); assay: Assay for inhibitory activities on MMPs (fluorogenic peptide substrate), MMP-2; conditions: read-out: MMP inhibitory activity IC50 MMP-2
Method: MMP-2 was purchased from Calbiochem-Novabiochem International, Inc.
The enzymatic activity on MMPs was analyzed by the method described in “C. Graham Knight, Frances Willenbrock and Gillian Murphy: A novel coumarin-labelled peptide for sensitive continuous assays of the matrix metalloproteinases: FEBS LETT., 296, (1992), 263-266”. The substrate: MOCAc-Pro-Leu-Gly-Leu-A2Pr(DNP)-Ala-Arg-NH2 was purchased from Peptide Institute, Inc., Osaka, Japan. The measurement of the inhibitory activities (IC50) was carried out by the following four methods;
(A) Reaction with substrate, enzyme (MMPs) and inhibitor
(B) Reaction with substrate and inhibitor, without enzyme
(C) Reaction with substrate and enzyme (MMPs), without inhibitor
(D) Reaction with substrate only
IC50 values were calculated by using the following formula and each fluorescence values of above four methods (A to D).
% inhibition={1-(A−B)/(C−D)}×100
IC50 means the concentration required to inhibit 50% of the enzyme activity.
(§1) The value of inhibitory activity against MMP-2, MMP-8, MMP-9, MMP-12, and MMP-13 measured by above mentioned methods are shown in Table 25 and 26.

MMP-8 = MMP-8 (Homo sapiens, UniProt P22894); assay: Assay for inhibitory activities on MMPs (fluorogenic peptide substrate), MMP-8; conditions: read-out: MMP inhibitory activity IC50 MMP-8
From the text: In regard to MMP-8, catalytic domain (^99Phe˜^262Gly) was amplified with PCR using commercial available Human Bone Marrow cDNA. This was cloned in Escherichia coli expression vector pTrc99AHE inserted with His-tag sequence and enterokinase digestion-site, induced and expressed by IPTG (Isopropyl-β-D-thiogalactopyranoside) and expressed in a insoluble fraction (Than F. Ho, M. Walid Qoronfleh, Robert C. Wahl, Trica A. Pulvino, Karen J. Vavra, Joe Falvo, Tracey M. Banks, Patricia G. Brake and Richard B. Ciccarelli: Gene expression, purification and characterization of recombinant human neutrophil collagenase. Gene 146, (1994) 297-301. It was prepared by the method in a slight modification). Isolation of MMP-8 from an insoluble fraction was carried out by dissolving in modifier (6 M urea) by a usual method and purification with metal chelate chromatography. And then removing modifier (6 M urea) with dialysis and refolding of the enzyme spontaneously gave activated MMP-8.
(§2) The enzymatic activity on MMPs was analyzed by the method described in “C. […]
(§3) IC50 values were calculated by using the following formula and each fluorescence values of above four methods (A to D). […]
as §1

MMP-9 = MMP-9 (Homo sapiens, UniProt P14780); assay: Assay for inhibitory activities on MMPs (fluorogenic peptide substrate), MMP-9; conditions: read-out: MMP inhibitory activity IC50 MMP-9
From the text: MMP-9 was isolated and purified by the procedure of Y. Okada et al. (Yasunori Okada, Yukio Gonoji, Katsumi Naka, Katsuro Tomita, Isao Nakanishi, Kazushi Iwata, Kyoko Yamashita, and Taro Hayakawa: Matrix metalloproteinase 9 (92-kDa gelatinase/type IV collagenase) from HT1080 human fibrosarcoma cells. Purification and activation of the precursor and enzymic properties, J. Biol. Chem., 1992, 267, 21712-21719) in combination with other following methods: 1) Yasunori Okada, Tatsuhisa Morodomi, Jan J, Enghild, Ko Suzuki, Atsushi Yasui, Isao Nakanishi, Guy Salvesen and Hideaki Nagase: Matrix metalloproteinase 2 from human rheumatoid synovial fibroblasts. Purification and activation of the precursor and enzymic properties, Eur. J. Biochem., 1990, 194, 721-730; 2) Robin V Ward, Rosalind M Hembry, John J Reynolds and Gillian Murphy: The purification of tissue inhibitor of metalloproteinase-2 from its 72 kDa progelatinase complex. Biochem. J., 1991, 278, 179-187. […]
as §2, §3, §1

MMP-12 = MMP-12 (Homo sapiens, UniProt P39900); assay: Assay for inhibitory activities on MMPs (fluorogenic peptide substrate), MMP-12; conditions: read-out: MMP inhibitory activity IC50 MMP-12
Method: In regard to MMP-12, catalytic domain (^100Phe˜^263Gly) was amplified with RT-PCR from Human Placenta Total RNA. This was cloned in Escherichia coli expression vector pTrc99AHE inserted with His-tag sequence and enterokinase digestion-site, induced and expressed by IPTG (Isopropyl-β-D-thiogalactopyranoside) and expressed in an insoluble fraction. Isolation of MMP-12 from an insoluble fraction was carried out by dissolving in modifier (6 M urea) by a usual method and purification with metal chelate chromatography (Ni Chelateing Sepharose). And then removing modifier (6 M urea) with dialysis and refolding of the enzyme spontaneously gave activated MMP-12.
The enzymatic activity on MMPs was analyzed by the method described in “C. Graham Knight, Frances Willenbrock and Gillian Murphy: A novel coumarin-labelled peptide for sensitive continuous assays of the matrix metalloproteinases: FEBS LETT., 296, (1992), 263-266”. The substrate: MOCAc-Pro-Leu-Gly-Leu-A2Pr(DNP)-Ala-Arg-NH2 was purchased from Peptide Institute, Inc., Osaka, Japan. The measurement of the inhibitory activities (IC50) was carried out by the following four methods; […]
as §3, §1

IC50 (MMP-13): 0.119 µM
IC50 (MMP-2): > 10 µM
IC50 (MMP-8): > 10 µM
IC50 (MMP-9): > 10 µM
IC50 (MMP-12): > 10 µM
Compound: C[C@H](NS(=O)(=O)c1ccc(-c2ccc(OCc3ccc4ccccc4c3)cc2)s1)C(=O)O
